Protein sequences, listed by entry. Tags and fused reporters are not part of them.
UniProt Q00788, whole entry: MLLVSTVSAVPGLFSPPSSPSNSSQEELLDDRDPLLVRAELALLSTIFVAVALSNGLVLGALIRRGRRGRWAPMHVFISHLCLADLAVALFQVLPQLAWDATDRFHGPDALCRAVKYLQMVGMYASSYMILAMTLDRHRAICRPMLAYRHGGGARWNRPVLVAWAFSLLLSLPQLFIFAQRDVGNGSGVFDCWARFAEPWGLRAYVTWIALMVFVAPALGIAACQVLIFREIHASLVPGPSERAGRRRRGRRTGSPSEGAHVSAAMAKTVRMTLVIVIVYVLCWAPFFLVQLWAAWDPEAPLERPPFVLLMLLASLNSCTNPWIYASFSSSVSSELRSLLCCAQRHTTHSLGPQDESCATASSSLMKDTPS

According to ChEMBL document CHEMBL1141418 (J Med Chem, 2007):

Target: Vasopressin V2 receptor (Rattus norvegicus, UniProt Q00788)
Test: Displacement of [3H]AVP from vasopressin V2 receptor in rat kidney membranes
Type: cell membranes, Membrane

In the case of `NC(=O)CC[C@@H]1NC(=O)[C@H](Cc2ccccc2)NC(=O)[C@H](Cc2ccc(O)cc2)NC(=O)[C@@H](N)CSSC[C@@H](C(=O)N2CCC[C@H]2C(=O)N[C@@H](CCCN=C(N)N)C(=O)NCC(N)=O)NC(=O)[C@H](CC(N)=O)NC1=O` [VASOPRESSIN], the Ki is reported as 0.45 nM (antagonist).
